# Experimental data as given in article PMC4774911, “Biochemical Screening of Five Protein Kinases from Plasmodium falciparum against 14,000 Cell-Active Compounds” (PLoS ONE, 2016).
# Tests used:
# [1] = tested on: human kinases in K562 cell extract; assay: Kinobead competition assay, kinome-wide summary; assay type: binding; settings: K562 extract kinobeads
# MAP4K2 = biological target: T1, MAP4K2 (Homo sapiens, UniProt Q12851); assay: biochemical
# T1 sequence (Q12851 1-820): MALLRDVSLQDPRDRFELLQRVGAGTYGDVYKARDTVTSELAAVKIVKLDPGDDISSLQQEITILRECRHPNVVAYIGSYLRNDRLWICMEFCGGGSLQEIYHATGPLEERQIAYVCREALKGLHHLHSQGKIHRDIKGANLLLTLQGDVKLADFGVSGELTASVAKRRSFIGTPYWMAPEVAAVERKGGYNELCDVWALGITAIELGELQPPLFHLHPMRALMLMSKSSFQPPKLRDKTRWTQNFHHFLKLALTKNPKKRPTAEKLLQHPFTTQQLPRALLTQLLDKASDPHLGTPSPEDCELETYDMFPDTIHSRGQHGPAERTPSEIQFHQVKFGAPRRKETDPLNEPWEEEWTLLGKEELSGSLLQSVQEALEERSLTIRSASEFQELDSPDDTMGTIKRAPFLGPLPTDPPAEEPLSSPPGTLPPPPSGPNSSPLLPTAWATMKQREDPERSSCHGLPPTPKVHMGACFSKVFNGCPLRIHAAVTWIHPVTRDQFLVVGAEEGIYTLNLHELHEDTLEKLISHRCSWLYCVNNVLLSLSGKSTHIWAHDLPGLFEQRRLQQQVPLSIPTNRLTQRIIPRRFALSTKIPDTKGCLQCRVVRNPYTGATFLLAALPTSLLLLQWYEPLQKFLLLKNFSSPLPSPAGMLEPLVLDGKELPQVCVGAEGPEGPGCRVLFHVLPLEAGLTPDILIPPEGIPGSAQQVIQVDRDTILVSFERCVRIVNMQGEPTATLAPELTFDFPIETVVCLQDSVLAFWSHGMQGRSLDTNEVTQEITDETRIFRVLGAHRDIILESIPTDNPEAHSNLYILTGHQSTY
# PRKACA = PRKACA (Homo sapiens, UniProt P17612); assay: biochemical
# MAPK6 = MAPK6 (Homo sapiens, UniProt Q16659); assay: biochemical
# SYK = SYK (Homo sapiens, UniProt P43405); assay: biochemical
smiles,measurement,setting,value
Cc1[nH]c(/C=C2\C(=O)Nc3ccc(S(=O)(=O)Cc4c(Cl)cccc4Cl)cc32)c(C)c1C(=O)N1CCC[C@@H]1CN1CCCC1 [TCMDC-125885],Profile against human kinases (in words),[1],clean
same,IC50,MAP4K2,> 20 µM
same,IC50,PRKACA,> 20 µM
same,IC50,MAPK6,> 20 µM
same,IC50,SYK,> 20 µM
